This is an account of results in patent US20250318521A1, “COMBINATION FOR REDUCING PHYTOTOXICITY OF SYSTEMIC FUNGICIDES IN CROPS AND RELATED METHODS” (UPL Mauritius Limited, priority 2024, published 2025).

The subject of the series is soyabean crop. Briefly: Evaluation of % damage in soyabean crop using safener (prothioconazole phytotoxicity reduction). To be noted: for damage to crop: compared with the other safeners; for % Damage: soyabean. The text has this:
A 480 SC (suspension concentrate) formulation of prothioconazole was used. The application amount of prothioconazole was high in an amount of 350 g ai/ha.
A 480 SC (suspension concentrate) formulation of prothioconazole was used. The application amount of prothioconazole was lower in an amount of 175 g ai/ha.

Take “zinc salt of ethylenediaminetetraacetic acid (EDTA) [Zn chelate (Zinc EDTA)]”: the damage to crop result is on record as “significantly lesser” (Table 1, prothioconazole 350 g ai/ha) and “significantly lesser” (Table 2, prothioconazole 175 g ai/ha). Moreover, the “% Damage” value turned out to be 5.0% (prothioconazole 175 g ai/ha (480 SC) + safener 67 g ai/ha, ratio 2:1); 7.0% (prothioconazole 175 g ai/ha (480 SC) + safener 202 g ai/ha, ratio 1:0.8); 15% (prothioconazole 350 g ai/ha (480 SC) + safener 67 g ai/ha, ratio 5:1); 10% (prothioconazole 350 g ai/ha (480 SC) + safener 202 g ai/ha, ratio 1.7:1).
